{"source": "patent US11221326B2", "about": "“Method of preparing cells exhibiting drug resistance, method of screening anticancer drugs, and anticancer drug screening kit” (TOPPAN PRINTING CO., LTD., priority 2016, dated 2022)", "format_in_all_cases": "cell-based", "key": {"[1]": {"tested_on": "human colorectal adenocarcinoma cell line HT29", "assay": "Drug sensitivity by viable count analysis (CNT %), HT29 cells cultured with exosomes from HCT116 (Example 1)", "settings": "Cetuximab 1 mg/mL, 72 hours", "procedure": "(§1) As a cell culture vessel, a Transwell cell culture insert (#3470 manufactured by Corning Incorporated) was used. The culture medium used was D-MEM (043-30085 manufactured by Wako Pure Chemical Corporation) containing 10 vol/vol % of bovine serum (EXO-FBS-50A-1 manufactured by System Biosciences, LLC), and 1 vol/vol % of penicillin-streptomycin (168-23191 manufactured by Wako Pure Chemical Corporation).\n(§2) Drugs were each assessed three times using a final concentration of 1 mg/mL of Cetuximab (Erbitux manufactured by Merck Serono).\nAs exosomes derived from drug resistant cell line, ones recovered from the culture supernatant of human colorectal adenocarcinoma cell line HCT116 (ATCC (registered trademark) CCL-247) by ultracentrifugation were used. […]\nIn viable count analysis, drug sensitivity was assessed by using a trypan blue solution and by counting cells in the fluorescence mode of a cell counter (Countess II) manufactured by Life Technologies Inc. […]\nThe cell structure dispersion is immersed in the trypan blue to count viable cells in the fluorescence mode of a cell counter (Countess II) manufactured by Life Technologies Corp. to assess the viable count. […]\n(1) Viable cell counts resulting from Conditions A to D were analyzed using the method mentioned above to assess drug sensitivity."}, "[2]": {"tested_on": "human colorectal cancer cell line NCI-H508", "assay": "Drug sensitivity by viable count analysis (CNT %), NCI-H508 cells cultured with patient serum exosomes (Example 4)", "settings": "72 hours", "procedure": "as §1\nDrugs were each assessed three times using final concentrations of 0.01 μg/mL and 0.1 μg/mL of Cetuximab.\nAssessments were conducted for three conditions, i.e., equivalent to 0-μL serum (no addition of exosomes derived from serum), equivalent to 9-μL serum (addition of exosomes equivalent to 9-μL serum), and equivalent to 45-μL serum (addition of exosomes equivalent to 45-μL serum).\nIn viable count analysis, drug sensitivity was assessed, as in Example 1, by using a trypan blue solution and by counting cells in the fluorescence mode of a cell counter (Countess II) manufactured by Life Technologies Inc. In the drug sensitivity assessment,CNT(cell viability)%=(viable count with addition of drug)/(viable count with addition of no drug)×100(%) was used as an assessment value.\n(1) 2×10^4 NCI^−H508 cells were seeded in a Transwell cell culture insert.\n(2) An appropriate amount of culture medium was added to the Transwell cell culture insert, followed by culturing in a CO2 incubator (37° C., 5% CO2) for 24 hours.\n(1) An appropriate amount of culture medium was mixed with exosomes to prepare exosome medium solutions containing exosomes equivalent to 0-μL serum (no addition of exosomes derived from serum), equivalent to 9-μL serum, and equivalent to 45-μL serum.\n(2) Each solution was added to the Transwell cell culture insert, followed by culturing in a CO2 incubator (37° C., 5% CO2) for 6 hours.\n(1) An appropriate amount of culture medium was mixed with a drug so as to have final concentrations of 0.01 μg/mL and 0.1 μg/mL.\n(2) The mixture was added to the Transwell cell culture insert, followed by culturing in a CO2 incubator (37° C., 5% CO2) for 72 hours."}, "[3]": {"tested_on": "human colorectal adenocarcinoma cell line HT29", "assay": "Drug sensitivity by viable count analysis (CNT %), HT29 cells cultured with exosomes from A549 (Example 2)", "settings": "Cetuximab 1 mg/mL, 72 hours", "source_text": "as §1, with “serum with non-extracellular secreted vesicles” for “serum”\nas §2\nAs exosomes derived from drug resistant cell line, a sample (exosomes) recovered from the culture supernatant of a human alveolar basal epithelial cell line A549 (ATCC (registered trademark) CCL-185) by ultracentrifugation were used. Assessments were conducted with respect to three conditions of 0 exosomes (Condition A) (no addition of the exosomes derived from the drug resistant cell line), 1×10^8 exosomes (Condition F), and 1×10^9 exosomes (Condition G).\nIn viable count analysis, drug sensitivity was assessed, as in Example 1, by using a trypan blue solution and by counting cells in the fluorescence mode of a cell counter (Countess II) manufactured by Life Technologies Inc. […]"}}}
{"substance": "Cetuximab", "values": [{"measurement": "CNT % compared with 0 exosomes (Condition A), FIG. 1", "setting": "[1]; 1×10^9 exosomes from HCT116 (Condition B)", "result": "predominantly higher CNT %"}, {"measurement": "Drug sensitivity, FIG. 1", "setting": "[1]; exosomes derived from serum of a healthy person (Condition C)", "result": "more effectiveness"}, {"measurement": "CNT (%) Average value", "setting": "[2]; Cetuximab 0.01 μg/mL, exosomes equivalent to 0-μL serum derived from patient exhibiting resistance", "result": 53.6, "unit": "%"}, {"measurement": "CNT (%) Average value", "setting": "[2]; Cetuximab 0.01 μg/mL, exosomes equivalent to 9-μL serum derived from patient exhibiting resistance", "result": 54.8, "unit": "%"}, {"measurement": "CNT (%) Average value", "setting": "[2]; Cetuximab 0.01 μg/mL, exosomes equivalent to 45-μL serum derived from patient exhibiting no resistance", "result": 61.9, "unit": "%"}, {"measurement": "CNT (%) Average value", "setting": "[2]; Cetuximab 0.01 μg/mL, exosomes equivalent to 45-μL serum derived from patient exhibiting resistance", "result": 78.6, "unit": "%"}, {"measurement": "CNT (%) Average value", "setting": "[2]; Cetuximab 0.1 μg/mL, exosomes equivalent to 0-μL serum derived from patient exhibiting resistance", "result": 38.4, "unit": "%"}, {"measurement": "CNT (%) Average value", "setting": "[2]; Cetuximab 0.1 μg/mL, exosomes equivalent to 9-μL serum derived from patient exhibiting resistance", "result": 35.5, "unit": "%"}, {"measurement": "CNT (%) Average value", "setting": "[2]; Cetuximab 0.1 μg/mL, exosomes equivalent to 45-μL serum derived from patient exhibiting no resistance", "result": 41.7, "unit": "%"}, {"measurement": "CNT (%) Average value", "setting": "[2]; Cetuximab 0.1 μg/mL, exosomes equivalent to 45-μL serum derived from patient exhibiting resistance", "result": 56.0, "unit": "%"}, {"measurement": "CNT % compared with 0 exosomes (Condition A), FIG. 2", "setting": "[3]; 1×10^8 exosomes from A549 (Condition F)", "result": "predominantly higher CNT %"}, {"measurement": "CNT % compared with 0 exosomes (Condition A), FIG. 2", "setting": "[3]; 1×10^9 exosomes from A549 (Condition G)", "result": "predominantly higher CNT %"}]}
